{"source": "patent US20230157952A1", "about": "“METHOD FOR IMPROVING THE STABILITY OF A PHARMACEUTICAL COMPOSITION COMPRISING A HIGH PENETRATION DRUG, AND THE PHARMACEUTICAL COMPOSITION OBTAINED THEREFROM” (Techfields Inc., priority 2020, published 2023)", "key": {"[1]": {"experiment": "Effect of pH value on the stability of the solution (purity)", "assay_type": "physicochemical", "conditions": "25° C."}, "[2]": {"experiment": "Effect of concentration on the stability of the solution (purity over time)", "conditions": "in water at 25° C."}, "[3]": {"experiment": "Stability of the pure HPDs (dry solid) at 25° C./RH 60%", "assay_type": "physicochemical", "conditions": "pure HPD, 25° C./RH 60%"}, "[4]": {"conditions": "day 0, pH 1.0, 7% solution in water"}, "[5]": {"conditions": "day 0, pH 2.0, 7% solution in water"}, "[6]": {"conditions": "day 0, pH 3.0, 7% solution in water"}, "[7]": {"conditions": "day 0, pH 3.7, 7% solution in water"}, "[8]": {"conditions": "day 0, pH 4.0, 7% solution in water"}, "[9]": {"conditions": "day 0, pH 4.3, 7% solution in water"}, "[10]": {"conditions": "day 0, pH 4.6, 7% solution in water"}, "[11]": {"conditions": "day 0, pH 5.0, 7% solution in water"}, "[12]": {"conditions": "day 0, pH 6.0, 7% solution in water"}, "[13]": {"conditions": "day 0, pH 7.0, 7% solution in water"}, "[14]": {"conditions": "day 0, pH 8.0, 7% solution in water"}}}
{"smiles": "CCN(CC)CCOC(=O)[C@H](C)c1ccc2cc(OC)ccc2c1.Cl", "note": "(racemic) [2-(diethylamino)ethyl (R,S)-2-(6-methoxy-2-naphthyl)propionate•HCl]", "values": [{"measurement": "Purity(%) from day 0-28", "setting": "[1]; [4]", "result": "98.5 ± 0.3", "unit": "%"}, {"measurement": "Purity(%) from day 0-28", "setting": "[1]; [5]", "result": "98.6 ± 0.2", "unit": "%"}, {"measurement": "Purity(%) from day 0-28", "setting": "[1]; [6]", "result": "98.6 ± 0.2", "unit": "%"}, {"measurement": "Purity(%) from day 0-28", "setting": "[1]; [7]", "result": "98.8 ± 0.3", "unit": "%"}, {"measurement": "Purity(%) from day 0-28", "setting": "[1]; [8]", "result": "98.8 ± 0.2", "unit": "%"}, {"measurement": "Purity(%) from day 0-28", "setting": "[1]; [9]", "result": "98.8 ± 0.3", "unit": "%"}, {"measurement": "Purity(%) from day 0-28", "setting": "[1]; [10]", "result": "98.8 ± 0.2", "unit": "%"}, {"measurement": "Purity(%) from day 0-28", "setting": "[1]; [11]", "result": "98.7 ± 0.3", "unit": "%"}, {"measurement": "Purity(%) from day 0-28", "setting": "[1]; [12]", "result": "98.6 ± 0.2", "unit": "%"}, {"measurement": "Purity(%) from day 0-28", "setting": "[1]; [13]", "result": "98.5 ± 0.3", "unit": "%"}, {"measurement": "Purity(%) from day 0-28", "setting": "[1]; [14]", "result": "98.3 ± 0.3", "unit": "%"}, {"measurement": "Purity(%) from day 0-28", "setting": "[1]; day 28, pH 4.0, 7% solution in water", "result": "97.8 ± 0.2", "unit": "%"}, {"measurement": "Purity(%) from day 0-28", "setting": "[1]; day 28, pH 4.3, 7% solution in water", "result": "97.9 ± 0.2", "unit": "%"}, {"measurement": "Purity(%) from day 0-28", "setting": "[1]; day 28, pH 4.6, 7% solution in water", "result": "97.9 ± 0.1", "unit": "%"}, {"measurement": "Purity at hr 0", "setting": "[2]; 0.01 wt %", "result": 98.3, "unit": "%"}, {"measurement": "Purity at Day 3", "setting": "[2]; 0.1 wt %", "result": 97.9, "unit": "%"}, {"measurement": "Purity at hr 0", "setting": "[2]; 0.1 wt %", "result": 98.6, "unit": "%"}, {"measurement": "Purity at hr 24", "setting": "[2]; 0.1 wt %", "result": 98.4, "unit": "%"}, {"measurement": "Purity at Day 3", "setting": "[2]; 1 wt %", "result": 98.2, "unit": "%"}, {"measurement": "Purity at Day 7", "setting": "[2]; 1 wt %", "result": 97.8, "unit": "%"}, {"measurement": "Purity at hr 0", "setting": "[2]; 1 wt %", "result": 98.6, "unit": "%"}, {"measurement": "Purity at hr 24", "setting": "[2]; 1 wt %", "result": 98.7, "unit": "%"}, {"measurement": "Purity at Day 3", "setting": "[2]; 3 wt %", "result": 98.5, "unit": "%"}, {"measurement": "Purity at Day 7", "setting": "[2]; 3 wt %", "result": 98.3, "unit": "%"}, {"measurement": "Purity at Day 14", "setting": "[2]; 3 wt %", "result": 97.9, "unit": "%"}, {"measurement": "Purity at hr 0", "setting": "[2]; 3 wt %", "result": 98.8, "unit": "%"}, {"measurement": "Purity at hr 24", "setting": "[2]; 3 wt %", "result": 98.7, "unit": "%"}, {"measurement": "Purity at Day 3", "setting": "[2]; 5 wt %", "result": 98.7, "unit": "%"}, {"measurement": "Purity at Day 7", "setting": "[2]; 5 wt %", "result": 98.5, "unit": "%"}, {"measurement": "Purity at Day 14", "setting": "[2]; 5 wt %", "result": 98.2, "unit": "%"}, {"measurement": "Purity at Day 21", "setting": "[2]; 5 wt %", "result": 97.7, "unit": "%"}, {"measurement": "Purity at hr 0", "setting": "[2]; 5 wt %", "result": 98.9, "unit": "%"}, {"measurement": "Purity at hr 24", "setting": "[2]; 5 wt %", "result": 98.8, "unit": "%"}, {"measurement": "Purity at Day 3", "setting": "[2]; 8 wt %", "result": 98.8, "unit": "%"}, {"measurement": "Purity at Day 7", "setting": "[2]; 8 wt %", "result": 98.6, "unit": "%"}, {"measurement": "Purity at Day 14", "setting": "[2]; 8 wt %", "result": 98.2, "unit": "%"}, {"measurement": "Purity at hr 0", "setting": "[2]; 8 wt %", "result": 98.9, "unit": "%"}, {"measurement": "Purity at hr 24", "setting": "[2]; 8 wt %", "result": 98.8, "unit": "%"}, {"measurement": "Purity at Day 3", "setting": "[2]; 10 wt %", "result": 98.8, "unit": "%"}, {"measurement": "Purity at Day 7", "setting": "[2]; 10 wt %", "result": 98.6, "unit": "%"}, {"measurement": "Purity at Day 14", "setting": "[2]; 10 wt %", "result": 98.3, "unit": "%"}, {"measurement": "Purity at hr 0", "setting": "[2]; 10 wt %", "result": 98.8, "unit": "%"}, {"measurement": "Purity at hr 24", "setting": "[2]; 10 wt %", "result": 98.8, "unit": "%"}, {"measurement": "Purity at Day 3", "setting": "[2]; 15 wt %", "result": 98.8, "unit": "%"}, {"measurement": "Purity at Day 7", "setting": "[2]; 15 wt %", "result": 98.7, "unit": "%"}, {"measurement": "Purity at Day 14", "setting": "[2]; 15 wt %", "result": 98.3, "unit": "%"}, {"measurement": "Purity at hr 0", "setting": "[2]; 15 wt %", "result": 98.8, "unit": "%"}, {"measurement": "Purity at hr 24", "setting": "[2]; 15 wt %", "result": 98.8, "unit": "%"}, {"measurement": "Purity at Day 3", "setting": "[2]; 20 wt %", "result": 98.8, "unit": "%"}, {"measurement": "Purity at Day 7", "setting": "[2]; 20 wt %", "result": 98.7, "unit": "%"}, {"measurement": "Purity at Day 14", "setting": "[2]; 20 wt %", "result": 98.3, "unit": "%"}, {"measurement": "Purity at hr 0", "setting": "[2]; 20 wt %", "result": 98.8, "unit": "%"}, {"measurement": "Purity at hr 24", "setting": "[2]; 20 wt %", "result": 98.8, "unit": "%"}, {"measurement": "Purity", "setting": "[3]; 12 month, listed as A-1-1", "result": "98.5 ± 0.2"}, {"measurement": "Purity", "setting": "[3]; 18 month, listed as A-1-1", "result": "98.3 ± 0.2"}, {"measurement": "Purity", "setting": "[3]; 24 month, listed as A-1-1", "result": "98.2 ± 0.2"}]}
{"smiles": "CCN(CC)CCOC(=O)[C@H](C)c1ccc2cc(OC)ccc2c1.O=C(O)CC(O)(CC(=O)O)C(=O)O", "note": "(racemic) [C-3, 2-(diethylamino)ethyl (R,S)-2-(6-methoxy-2-naphthyl) propionate•citric acid salt]", "values": [{"measurement": "Purity(%) from day 0-28", "setting": "[1]; [4]", "result": "98.0 ± 0.3", "unit": "%"}, {"measurement": "Purity(%) from day 0-28", "setting": "[1]; [5]", "result": "98.2 ± 0.4", "unit": "%"}, {"measurement": "Purity(%) from day 0-28", "setting": "[1]; [6]", "result": "98.2 ± 0.2", "unit": "%"}, {"measurement": "Purity(%) from day 0-28", "setting": "[1]; [7]", "result": "98.3 ± 0.4", "unit": "%"}, {"measurement": "Purity(%) from day 0-28", "setting": "[1]; [8]", "result": "98.4 ± 0.3", "unit": "%"}, {"measurement": "Purity(%) from day 0-28", "setting": "[1]; [9]", "result": "98.3 ± 0.4", "unit": "%"}, {"measurement": "Purity(%) from day 0-28", "setting": "[1]; [10]", "result": "98.3 ± 0.2", "unit": "%"}, {"measurement": "Purity(%) from day 0-28", "setting": "[1]; [11]", "result": "98.1 ± 0.3", "unit": "%"}, {"measurement": "Purity(%) from day 0-28", "setting": "[1]; [12]", "result": "98.1 ± 0.3", "unit": "%"}, {"measurement": "Purity(%) from day 0-28", "setting": "[1]; [13]", "result": "98.0 ± 0.3", "unit": "%"}, {"measurement": "Purity(%) from day 0-28", "setting": "[1]; [14]", "result": "98.0 ± 0.2", "unit": "%"}, {"measurement": "Purity", "setting": "[3]; 3 month", "result": "98.3 ± 0.1"}, {"measurement": "Purity", "setting": "[3]; 6 month", "result": "98.2 ± 0.3"}, {"measurement": "Purity", "setting": "[3]; 9 month", "result": "98.4 ± 0.3"}, {"measurement": "Purity", "setting": "[3]; Day 0", "result": "98.4 ± 0.2"}]}
{"smiles": "CC(C)Cc1ccc([C@@H](C)C(=O)OC[C@@H]2CCCN2)cc1.Cl", "note": "[C-7, 2-pyrrolidinemethyl (R,S)-2-(p-isobutylphenyl)propionate•HCl salt]", "values": [{"measurement": "Purity(%) from day 0-28", "setting": "[1]; day 0, pH 1.0, 7% in 25% ethanol", "result": "97.8 ± 0.4", "unit": "%"}, {"measurement": "Purity(%) from day 0-28", "setting": "[1]; day 0, pH 2.0, 7% in 25% ethanol", "result": "98.1 ± 0.3", "unit": "%"}, {"measurement": "Purity(%) from day 0-28", "setting": "[1]; day 0, pH 3.0, 7% in 25% ethanol", "result": "98.3 ± 0.3", "unit": "%"}, {"measurement": "Purity(%) from day 0-28", "setting": "[1]; day 0, pH 3.7, 7% in 25% ethanol", "result": "98.5 ± 0.2", "unit": "%"}, {"measurement": "Purity(%) from day 0-28", "setting": "[1]; day 0, pH 4.0, 7% in 25% ethanol", "result": "98.6 ± 0.3", "unit": "%"}, {"measurement": "Purity(%) from day 0-28", "setting": "[1]; day 0, pH 4.3, 7% in 25% ethanol", "result": "98.5 ± 0.3", "unit": "%"}, {"measurement": "Purity(%) from day 0-28", "setting": "[1]; day 0, pH 4.6, 7% in 25% ethanol", "result": "98.5 ± 0.2", "unit": "%"}, {"measurement": "Purity(%) from day 0-28", "setting": "[1]; day 0, pH 5.0, 7% in 25% ethanol", "result": "98.4 ± 0.3", "unit": "%"}, {"measurement": "Purity(%) from day 0-28", "setting": "[1]; day 0, pH 6.0, 7% in 25% ethanol", "result": "98.4 ± 0.4", "unit": "%"}, {"measurement": "Purity(%) from day 0-28", "setting": "[1]; day 0, pH 7.0, 7% in 25% ethanol", "result": "98.2 ± 0.3", "unit": "%"}, {"measurement": "Purity(%) from day 0-28", "setting": "[1]; day 0, pH 8.0, 7% in 25% ethanol", "result": "97.7 ± 0.3", "unit": "%"}, {"measurement": "Purity", "setting": "[3]; 3 month", "result": "98.2 ± 0.1"}, {"measurement": "Purity", "setting": "[3]; 6 month", "result": "98.2 ± 0.2"}, {"measurement": "Purity", "setting": "[3]; 12 month", "result": "98.2 ± 0.3"}, {"measurement": "Purity", "setting": "[3]; Day 0", "result": "98.3 ± 0.2"}]}
